Tests used:
[1] = target: T1, Cyclin-dependent kinase 12 (Homo sapiens, UniProt Q9NYV4); conditions: dose 200.0 nM
[2] = target: T1, Cyclin-dependent kinase 12; conditions: dose 20.0 nM
[3] = target: T1, Cyclin-dependent kinase 12; conditions: dose 2000.0 nM

Sequences of proteins named here, by UniProt entry; tags and fusion partners are left off.
UniProt Q9NYV4, whole entry, looked up: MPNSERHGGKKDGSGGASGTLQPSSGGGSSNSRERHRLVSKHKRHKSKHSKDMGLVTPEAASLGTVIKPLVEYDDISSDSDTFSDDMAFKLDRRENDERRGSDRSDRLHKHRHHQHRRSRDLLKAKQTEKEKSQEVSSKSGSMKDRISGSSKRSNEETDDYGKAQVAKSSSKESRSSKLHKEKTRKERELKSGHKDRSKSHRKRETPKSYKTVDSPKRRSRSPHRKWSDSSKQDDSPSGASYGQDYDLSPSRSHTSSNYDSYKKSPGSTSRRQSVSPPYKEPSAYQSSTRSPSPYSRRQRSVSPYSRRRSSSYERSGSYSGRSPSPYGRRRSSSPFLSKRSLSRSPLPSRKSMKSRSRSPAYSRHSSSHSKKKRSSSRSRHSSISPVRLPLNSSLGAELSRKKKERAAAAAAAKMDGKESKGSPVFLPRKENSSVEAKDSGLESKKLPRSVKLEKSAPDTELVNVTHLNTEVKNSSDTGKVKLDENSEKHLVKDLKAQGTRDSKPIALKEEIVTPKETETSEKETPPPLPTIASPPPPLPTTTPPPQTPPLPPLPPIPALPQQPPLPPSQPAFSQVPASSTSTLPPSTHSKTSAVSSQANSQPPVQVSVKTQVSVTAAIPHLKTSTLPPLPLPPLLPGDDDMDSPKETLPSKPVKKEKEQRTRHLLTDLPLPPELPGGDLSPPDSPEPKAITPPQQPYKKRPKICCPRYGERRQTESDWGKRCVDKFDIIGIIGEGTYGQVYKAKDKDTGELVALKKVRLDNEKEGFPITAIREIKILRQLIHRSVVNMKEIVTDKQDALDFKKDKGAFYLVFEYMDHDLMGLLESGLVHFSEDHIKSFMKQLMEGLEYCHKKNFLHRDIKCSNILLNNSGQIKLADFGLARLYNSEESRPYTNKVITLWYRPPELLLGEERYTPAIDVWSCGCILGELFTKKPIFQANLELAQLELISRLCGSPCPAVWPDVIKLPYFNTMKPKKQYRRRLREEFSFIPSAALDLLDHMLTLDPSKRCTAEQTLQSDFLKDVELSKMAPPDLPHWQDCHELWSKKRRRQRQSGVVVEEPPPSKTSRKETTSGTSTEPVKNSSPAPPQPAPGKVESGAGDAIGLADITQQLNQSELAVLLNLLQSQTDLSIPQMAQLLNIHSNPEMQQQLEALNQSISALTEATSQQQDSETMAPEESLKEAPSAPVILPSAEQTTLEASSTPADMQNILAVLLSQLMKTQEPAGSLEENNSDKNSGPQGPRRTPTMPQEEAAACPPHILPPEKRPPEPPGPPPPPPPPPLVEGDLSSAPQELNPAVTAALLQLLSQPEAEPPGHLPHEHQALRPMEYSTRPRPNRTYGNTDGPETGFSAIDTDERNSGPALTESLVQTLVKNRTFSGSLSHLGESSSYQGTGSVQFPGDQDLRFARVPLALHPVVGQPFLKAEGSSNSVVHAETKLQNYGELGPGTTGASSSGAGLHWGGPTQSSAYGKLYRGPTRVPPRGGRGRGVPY

- inhibition [1]: 56.9%
- inhibition [2]: 26.8%
- inhibition [3]: 91.2%
Compound: Cn1cc(-n2cnc3c(NCc4nc5cc(Cl)c(Cl)cc5[nH]4)nc(N4CCOCC4)nc32)cn1

Reference: ChEMBL document CHEMBL6114995, “Discovery of novel imidazo[1,2-b]pyridazine derivatives as potent covalent inhibitors of CDK12/13” (Eur J Med Chem, 2025)
